Among the data in US11839619B2, “Methods for treatment of pediatric systemic mastocytosis” (The Regents of the University of California, priority 2019, dated 2023) are tolerability values, retold here.

This data set deals with indolent SM with KIT p.D816V pathogenic variant. Kind of data set: Treatment of an infant patient with indolent systemic mastocytosis (compassionate use case). Conditions: infant patient on midostaurin.

For the compound `CO[C@@H]1[C@H](N(C)C(=O)c2ccccc2)C[C@H]2O[C@]1(C)n1c3ccccc3c3c4c(c5c6ccccc6n2c5c31)C(=O)NC4` [midostaurin], the tolerability entry is recorded as “tolerating midostaurin well”.
